Results taken from article PMC11847841, “The development and evaluation of a tublysine-based antibody-drug conjugate with enhanced tumor therapeutic efficacy” (Frontiers in Pharmacology, 2025).

How the values were obtained:
[1] = Acute toxicity study in ICR mice; assay type: in vivo
Protocol: The study was terminated after 12 days of dosing. Body weights were monitored daily. The serum enzyme activities of AST and ALT were measured on day 5 and 12 after dosing. Half of the mice in each group (n = 5) were euthanized on day 5 and 12. The hearts, livers, spleens, lungs, kidneys and brains were collected and weighed. Pathological examinations using hematoxylin and eosin (HE) staining were conducted on selected organs and tissues, particularly those showing significant weight changes or macroscopic abnormalities, such as the livers.

[2] = cited from earlier work
[3] = Kadcyla 60 mg/kg single dose, rat; ref Poon et al., 2013; cited from earlier work

**Q.** With ado-trastuzumab emtansine [Kadcyla] as the substance, how does the “Maximal body weight reduction” value ([1]; 75 mg/kg single i.v. (Kadcyla: day 4)) read?
**A.** −9.3%

**Q.** And the “Hepatic pathological findings (H&E)” value ([1]; 75 mg/kg, day 5)?
**A.** swelling of hepatocytes

**Q.** And the “Increase of liver/brain weights” value ([1]; 75 mg/kg, day 5)?
**A.** 22.6%

**Q.** And the “Increase of serum ALT activity” value ([1]; 75 mg/kg, day 5)?
**A.** 4.6 fold

**Q.** And the “Increase of serum AST activity” value ([1]; 75 mg/kg, day 5)?
**A.** 8.8 fold

**Q.** And the “Hepatic pathological findings (H&E)” value ([1]; 75 mg/kg, day 12)?
**A.** mildly swollen hepatocytes, vacuolization around the nucleus, and numerous inflammatory cells surrounding the bile tubules and portal venules

**Q.** And the “Increase of liver/brain weights” value ([1]; 75 mg/kg, day 12)?
**A.** 35.7%

**Q.** And the “Increase of serum ALT activity” value ([1]; 75 mg/kg, day 12)?
**A.** 9.4 fold

**Q.** And the “Increase of serum AST activity” value ([1]; 75 mg/kg, day 12)?
**A.** 3.1 fold

**Q.** What about the “Maximal body weight reduction” value ([1]; 150 mg/kg single i.v. (Kadcyla: day 5)) of the same substance?
**A.** −14.3%

**Q.** And the “Hepatic pathological findings (H&E)” value ([1]; 150 mg/kg, day 5)?
**A.** focal necrosis, vacuolar degeneration of hepatocytes, and infiltration of inflammatory cells

**Q.** What about the “Increase of liver/brain weights” value ([1]; 150 mg/kg, day 5) of the same substance?
**A.** 0%

**Q.** And the “Increase of serum ALT activity” value ([1]; 150 mg/kg, day 5)?
**A.** 5.8 fold

**Q.** What about the “Increase of serum AST activity” value ([1]; 150 mg/kg, day 5) of the same substance?
**A.** 20.8 fold

**Q.** What about the “Hepatic pathological findings (H&E)” value ([1]; 150 mg/kg, day 12) of the same substance?
**A.** focal necrosis with infiltration of many inflammatory cells, vacuolar degeneration of hepatocytes, and Kupffer’s cell hypertrophy

**Q.** And the “Increase of liver/brain weights” value ([1]; 150 mg/kg, day 12)?
**A.** 96.4%

**Q.** And the “Increase of serum ALT activity” value ([1]; 150 mg/kg, day 12)?
**A.** 14.3 fold

**Q.** What about the “Increase of serum AST activity” value ([1]; 150 mg/kg, day 12) of the same substance?
**A.** 5.5 fold

**Q.** What about the “Survival at the end of the study period” value ([1]; single i.v. 75 or 150 mg/kg, 12 days) of the same substance?
**A.** All the test animals survived

**Q.** And the “Maximum tolerated dose (MTD)” value ([2]; every 3 weeks (Q3W), ref Krop et al., 2010, Lambert and Chari, 2014, de Goeij and Lambert, 2016)?
**A.** 3.6 mg/kg

**Q.** What about the ILD/pneumonitis incidence ([2]; ref Montemurro et al., 2019) of the same substance?
**A.** approximately 1%

**Q.** And the “Outcome of single-dose regimen” value [3]?
**A.** animal death
